The source of these data is patent US6375962B2, “Barrier cream comprising hexamethylenetetramine or derivative thereof” (dated 2002).

The test system of series [1] is SVK-14 human keratinocyte cells. Particulars: treatment without SM.
Series [2] shares this test system.
Series [3] can be described thus: Reactivity with radiolabelled sulphur mustard in THF, TLC autoradiography. The settings on record: one hour after addition of 35S-SM.

As to `C1N2CN3CN1CN(C2)C3`, in series [1], the “growth of the cells (crystal violet assay) compared to control” value was “did not significantly alter the growth”. Besides, the “increase in viability compared to SM control” value in series [2] (10 mM HMT singly, 72 hour time-point) was found to be 22.6%. Also, in series [2] (20 mM HMT, 72 hours, p>0.05), the “effect on toxicity of SM (viability)” value is on record as “did not alter the toxicity of SM”. In addition, the “cellular function measured by neutral red uptake” value in series [2] (treatment without SM, over the course of the experiment) is on record as “nor alter cellular function”. Further, the “free H (SM) on TLC autoradiograph” value in series [3] is listed as “No free H is present”.
